## Ab-14 light chain CDR variants: yeast mating affinities

The target is the same throughout: PDVDLGDISGINAS, from the HR2 region of SARS-CoV-2 spike.

Parent: Ab-14, a human scFv built as VH, the linker GGGGSGGGGSGGGGS, VL. Only the CDRs of the light chain vary.
VH: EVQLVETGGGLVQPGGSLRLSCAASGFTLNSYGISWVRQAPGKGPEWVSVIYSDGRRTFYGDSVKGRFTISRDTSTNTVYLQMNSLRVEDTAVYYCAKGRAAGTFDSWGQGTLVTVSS
VL: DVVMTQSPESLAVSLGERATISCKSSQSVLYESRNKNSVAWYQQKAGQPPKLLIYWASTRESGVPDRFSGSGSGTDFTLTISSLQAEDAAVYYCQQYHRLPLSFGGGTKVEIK

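Designed CDR sequences, proposed from the first random library and measured here. Their group label is 14L_En_HC (En: ensemble of fine-tuned language models; HC: hill climbing; a sequence that several methods proposed may carry one label only). The assay is AlphaSeq: two haploid yeast populations carry antibody and antigen on their surface. Pairs that bind mate more often; barcode pairs of the diploids are counted by sequencing. Each replicate has its own calibration line, from reference interactions of the BCL2 family. Each pool was mated in six replicate cultures.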

The parent's light chain CDRs are KSSQSVLYESRNKNSVA, WASTRES, QQYHRLPLS; each variant's own CDRs replace them letter for letter. The read-out is the apparent dissociation constant on a log10 scale (nM): the lower, the stronger. A mean of the replicates is given; it leaves out those without a signal. "ND" marks a missing value. The strain was present, yet no cells mated with the target were sequenced in that replicate, which points to weak or no binding. Values of this round are not directly comparable with the first-round values of the same sequences. Three control strains display no target. For all light chain designs, 4% of the pairings with them gave a signal, with a median of 2.64 and one signal in twenty below 1.59, so weak values seen in few replicates may be background. Also given: how often the same scFv was detected with the empty control strains, with their mean in brackets. In the paper, a design with two or fewer of six values counts as a poor binder. The parent sequence was in this pool as ten entries: three were never detected, three once, and four in most replicates, with averages from 0.34 to 2.37.

CDR-L1	CDR-L2	CDR-L3	log10 Kd, replicates	log10 Kd (nM), mean	signal with controls
MIAQGLRGVGRNKNSVA	NAQTRMS	QHYHRLPLS	ND ND ND ND ND ND	ND	0/18
KLYVSTMLESHNKNSIA	DLTTRGN	QQYHRLPLS	0.59 0.54 0.44 0.33 0.18 0.57	0.44	1/18 (3.79)
KLYVSTMLEEHNKNSIA	DLSTRGN	QQYHRLPLS	0.47 0.40 0.96 0.40 0.48 1.12	0.64	1/18 (2.04)
KLSLFYRVETRAKNSVA	DNSTRES	QDYDRLPLS	ND ND ND ND 3.74 ND	3.74	2/18 (3.12)
HVSESVLLQSKMKNSVA	ENSTRES	QQYDRLPLS	1.62 2.51 ND 3.26 2.24 2.64	2.45	1/18 (2.28)
KISQMVNFESTHINAVA	QMSTREE	QQYFRLPLS	0.68 0.56 0.56 0.21 0.76 0.62	0.57	3/18 (2.34)
TISQMTFVESKTRNNVA	EMTTREN	QDYDRLPLS	1.89 3.32 2.17 ND 1.40 2.03	2.16	0/18
MISQSFLIGSYAKNSVA	QTSTRES	QQYDRLPLS	-0.16 -0.22 -0.30 -0.49 -0.49 -0.09	-0.29	0/18
KLSEMAHFESRKKNSVA	ENSTRES	QQYDHLPLS	1.36 1.47 1.33 1.43 1.35 1.67	1.44	3/18 (2.97)
IISTVDAYESRNKNSIA	DQSTRGS	QQYDRLPLS	0.58 0.87 0.68 0.48 0.44 0.87	0.65	1/18 (2.03)
MISDLTMQGSRNKNSVA	DLSTRGS	QQYHRLPLS	0.53 0.39 0.28 0.31 0.14 0.39	0.34	1/18 (2.70)
IAYGGDMLESVTRNSVA	NAETRAD	QDYHRLPLS	0.81 1.29 0.77 0.76 0.73 0.88	0.87	1/18 (2.35)
SLAESAHLETRNKNSVA	DNSTRES	QHYDRLPLS	ND ND ND ND ND ND	ND	0/18
KLSQLFYKESRNKNNVA	EMTTRGS	QQYDRLPLS	0.44 0.14 0.42 0.09 0.22 0.67	0.33	1/18 (2.58)
KCSQNMGETQRNKNSVA	EVSTVPS	QQYFRLPLS	0.49 1.93 0.87 0.99 1.18 0.89	1.06	0/18
TLTQSVGMQSHNKNSVA	DLSTRGS	QQYHRLPLS	0.33 0.14 0.33 0.13 -0.11 0.19	0.17	1/18 (2.55)
KIAATSLYESGAVNSVA	QNSTRES	QQYHRLPLS	1.96 2.49 1.37 2.36 2.15 1.57	1.98	1/18 (2.59)
KISMLYNFAQTNKNSIA	EMTTREQ	QHYHRLPLS	ND 2.25 ND ND ND ND	2.25	0/18
MAYGGDMLEMVTRNSVA	NAETRAD	QDYHRLPLS	0.25 0.17 0.11 0.09 0.02 0.44	0.18	2/18 (3.52)
KLSIMYQHTSRNKNNIA	ERSTREE	QQYHHLPLS	0.41 0.40 0.33 0.44 0.20 0.44	0.37	1/18 (2.71)
KLGSATRFESSNKASIA	DNSTREE	QQYHRLPLS	0.71 0.84 0.83 0.55 0.52 1.27	0.79	0/18
KVSESMAFLSRNRNSVA	DNSTRGS	QQYHRLPLS	0.79 1.08 0.87 1.15 1.00 1.26	1.03	2/18 (3.41)
KLGATVGYEQRNKSRVA	DNSTRES	QQYDRLPLS	ND 2.95 2.53 2.36 2.16 2.34	2.47	1/18 (2.71)
TISQMFLGESRNRNSVA	QASTRES	QSYDRLPLS	0.74 1.28 1.12 0.91 1.07 1.24	1.06	0/18
HTSDLIMVASRNKNSVA	EESTRPD	QQYHRLPLS	0.48 2.24 0.63 0.33 0.72 0.83	0.87	0/18
KIAQSVAMTSHHINSVA	QSTTREE	QQYNRLPLS	0.35 0.30 0.33 -0.18 0.33 0.43	0.26	0/18
HVSESIFAQSKMRNSVA	ENSTRES	QQYDRLPLS	1.68 1.23 1.64 1.58 1.03 2.35	1.59	0/18
KISFQYRYEQLSKNSIA	EAQTRLK	QQYHRLPLS	0.96 0.41 0.75 0.64 0.50 1.10	0.73	1/18 (2.81)
HISQSIDLESVHKNSIA	DLMTRES	QQYHRLPLS	0.22 0.43 0.06 0.02 0.08 0.36	0.19	2/18 (2.41)
KLPMATMVESLSKNNVA	ELSTRGS	QQYNRLPLS	0.53 0.16 0.16 0.11 0.15 0.24	0.22	0/18
NISESMYFQSRNNNNIA	EMSTRER	QHYHRLPLS	0.77 0.53 0.74 0.39 0.68 0.75	0.64	2/18 (2.71)
NLYQSMNFLGRVMNSIA	DAQTLPD	QQYHRLPLS	0.88 0.54 0.68 0.43 0.99 0.79	0.72	0/18
KLIQSVAMMSRNKDSIA	DNSTRES	QQYHRLPLS	1.79 1.28 2.30 1.58 2.13 2.77	1.97	1/18 (2.90)
KLYQATAMTSHMRNNVA	DLNERER	QQYFRLPLS	0.96 0.52 0.49 0.20 0.69 0.99	0.64	1/18 (1.65)
MISGSVMSNSRLKNSVA	QTTTRES	QQYDRLPLS	0.61 0.69 0.39 0.50 0.81 0.66	0.61	1/18 (2.74)
KIYMMTGFQSRNADSIA	DNSTRGS	QQYHRLPLS	1.23 2.31 1.89 1.61 1.11 1.65	1.63	2/18 (2.93)
KLSMSMLMESRVKNSVA	ENSTREE	QHYHRLPLS	1.69 2.18 ND 2.43 2.24 2.38	2.18	2/18 (2.52)
KISQMVTYESTWHNAIA	QTSERES	QQYHRLPFS	0.95 0.84 0.67 0.81 1.65 1.10	1.00	0/18
MISQLFMYGMRNYNSVA	QASTRES	QQYDRLPLI	1.23 1.63 0.68 0.75 0.84 1.37	1.09	0/18
KIGQGVHLESIMKNSIA	QTSTREE	QQYDRLPLS	0.45 0.32 0.50 0.16 0.30 0.51	0.37	3/18 (3.09)
TLSQSMDMTSRNVNSVA	DLTERGN	QQYHRLPLS	-0.21 0.16 0.22 0.12 0.11 0.12	0.09	0/18
TIGPMLMTESHNKNSVA	GMQTRER	QQYHRLPLS	0.22 0.28 0.42 0.31 0.25 0.44	0.32	0/18
SITQLVAYGSRNKNSVA	QMSTREN	QQYDRLPLA	1.11 0.72 0.75 0.56 0.42 1.25	0.80	0/18
KLIQSVAMSSRNKDSIA	DNSTRYS	QQYHRLPLS	1.39 1.14 1.19 1.09 0.70 1.55	1.18	5/18 (2.82)
KLSIMGLHQSIEKKSIA	ERSTREN	QQYHRLPLS	0.48 0.60 0.43 0.34 0.65 0.73	0.54	1/18 (3.76)
KLTEMFQHTSKNKNNIA	ERSTREE	QQYHHLPLS	0.28 0.05 -0.13 -0.05 0.23 0.41	0.13	0/18

Top 6 of the variants detected in all replicates, tightest first:

CDR-L1,CDR-L2,CDR-L3,"log10 Kd, replicates","log10 Kd (nM), mean",signal with controls
MISQSFLIGSYAKNSVA,QTSTRES,QQYDRLPLS,-0.16 -0.22 -0.30 -0.49 -0.49 -0.09,-0.29,0/18
TLSQSMDMTSRNVNSVA,DLTERGN,QQYHRLPLS,-0.21 0.16 0.22 0.12 0.11 0.12,0.09,0/18
KLTEMFQHTSKNKNNIA,ERSTREE,QQYHHLPLS,0.28 0.05 -0.13 -0.05 0.23 0.41,0.13,0/18
TLTQSVGMQSHNKNSVA,DLSTRGS,QQYHRLPLS,0.33 0.14 0.33 0.13 -0.11 0.19,0.17,1/18 (2.55)
MAYGGDMLEMVTRNSVA,NAETRAD,QDYHRLPLS,0.25 0.17 0.11 0.09 0.02 0.44,0.18,2/18 (3.52)
HISQSIDLESVHKNSIA,DLMTRES,QQYHRLPLS,0.22 0.43 0.06 0.02 0.08 0.36,0.19,2/18 (2.41)

The measurements come from Li et al. 2023 (doi:10.1038/s41467-023-39022-2) through the FLAb antibody collection.